# This is a selection; strong and weak results do not stand in their true shares. Calls of active or inactive are those of the source. No stated cut-off is given here; in the data, active means activation above about 8.4%; inactive means the rest.
# Amino acid sequences for entries named in this document (tags omitted). A change or cut given only in a name is not applied to a line headed by its entry.
# UniProt O43603: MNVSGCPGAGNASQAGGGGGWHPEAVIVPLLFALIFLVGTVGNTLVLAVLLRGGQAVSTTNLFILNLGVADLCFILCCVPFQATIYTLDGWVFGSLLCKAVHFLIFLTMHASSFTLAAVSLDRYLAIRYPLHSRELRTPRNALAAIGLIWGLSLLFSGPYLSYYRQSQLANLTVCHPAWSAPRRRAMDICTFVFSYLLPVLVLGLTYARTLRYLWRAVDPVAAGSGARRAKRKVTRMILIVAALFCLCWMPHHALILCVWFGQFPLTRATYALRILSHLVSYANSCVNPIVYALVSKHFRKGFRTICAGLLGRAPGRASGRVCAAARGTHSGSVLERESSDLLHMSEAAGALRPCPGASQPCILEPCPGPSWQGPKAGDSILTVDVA
# Target: Galanin receptor type 2 (Homo sapiens) (UniProt O43603)
# Assay: GALR2 agonists, retest of hits, confirmation, cell-based (AID 864);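 further: 0% = buffer-only vehicle wells and 100% = full reference agonist response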
# Details: GALR2-expressing cells, agonist activation; at 5.6 µM; stronger effect = higher value
structure (smiles),measurement,value
CCC(C)N(CC(C)C)C(=S)SC(NC(C)=O)C(Cl)(Cl)Cl (stereo unspecified),activation,inactive: -1.41%

# Source: PubChem BioAssay AID864 (The Scripps Research Institute Molecular Screening Center, 2007)
